{"source": "ChEMBL document CHEMBL4325864", "about": "“Discovery of new potent protein arginine methyltransferase 5 (PRMT5) inhibitors by assembly of key pharmacophores from known inhibitors” (Bioorg Med Chem Lett, 2018)", "key": {"Homo sapiens [1]": {"organism": "Homo sapiens", "assay": "Selectivity index, ratio of IC50 for inhibition of PRMT1 (unknown origin) to IC50 for Inhibition of recombinant human N-terminal FLAG-tagged PRMT5 (2 to end residues) /human N-terminal His-tagged MEP50 (2 to end residues) expressed in HEK293F cells", "type": "cell-based"}, "Homo sapiens [2]": {"organism": "Homo sapiens", "assay": "Selectivity index, ratio of IC50 for inhibition of PRMT4 (unknown origin) to IC50 for Inhibition of recombinant human N-terminal FLAG-tagged PRMT5 (2 to end residues) /human N-terminal His-tagged MEP50 (2 to end residues) expressed in HEK293F cells", "type": "cell-based"}}, "data": [{"smiles": "N#Cc1c(Br)cccc1NC(=O)CCN1CCc2ccccc2C1", "values": [{"measurement": "Ratio IC50", "setting": "Homo sapiens [1]", "result": "> 70"}, {"measurement": "Ratio IC50", "setting": "Homo sapiens [2]", "result": "> 70"}]}]}
